The test system of this assay is HLA-A2 supertype molecules (A*0201, A*0202, A*0203, A*0206, A*6802). Kind of assay: A2-supertype cross-reactive binding (number of the five alleles bound). Set-up: species or system human. The settings on record: number of the five A2-supertype alleles bound.
Regarding `CC(C)C[C@H](NC(=O)[C@H](CO)NC(=O)[C@H](C)NC(=O)[C@H](C)NC(=O)[C@H](CCCNC(=N)N)NC(=O)[C@H](C)NC(=O)[C@H](CC(C)C)NC(=O)[C@H](CC(C)C)NC(=O)[C@@H](N)CC(C)C)C(=O)O` [Peptide 20.0044], the “A2 Cross-Reactivity” value worked out at 4.

For `CC(C)C[C@H](NC(=O)[C@H](CO)NC(=O)[C@H](CC(C)C)NC(=O)[C@H](CO)NC(=O)[C@H](C)NC(=O)[C@H](C)NC(=O)[C@H](CCCNC(=N)N)NC(=O)[C@H](C)NC(=O)[C@H](CC(C)C)NC(=O)[C@@H](N)CC(C)C)C(=O)O` [Peptide 20.0203], the “A2 Cross-Reactivity” value came out at 3. Then `CSCC[C@H](NC(=O)[C@H](C)NC(=O)[C@H](CO)NC(=O)[C@H](CCSC)NC(=O)[C@H](CC(C)C)NC(=O)[C@@H](N)[C@@H](C)O)C(=O)N[C@H](C(=O)N[C@@H](CC(N)=O)C(=O)N[C@@H](CC(C)C)C(=O)N[C@@H](C)C(=O)O)[C@@H](C)O` [Peptide 20.0312], with 3; and `CC(C)C[C@H](NC(=O)[C@H](Cc1c[nH]cn1)NC(=O)[C@H](CC(C)C)NC(=O)[C@H](CO)NC(=O)[C@@H](NC(=O)[C@H](CS)NC(=O)[C@H](CCC(N)=O)NC(=O)[C@H](CC(C)C)NC(=O)[C@@H](N)CO)C(C)C)C(=O)O` [Peptide 60.0191], with 3. `CC(C)C[C@H](NC(=O)[C@H](CC(C)C)NC(=O)[C@@H](N)CC(C)C)C(=O)N[C@@H](C)C(=O)N[C@@H](CCCNC(=N)N)C(=O)N[C@@H](C)C(=O)N[C@@H](C)C(=O)N[C@@H](CO)C(=O)N[C@H](C(=O)O)C(C)C` [Peptide 60.0201]: the “A2 Cross-Reactivity” value is 4. Regarding `CC(C)C[C@H](NC(=O)[C@H](CC(C)C)NC(=O)[C@H](Cc1ccccc1)NC(=O)[C@H](CC(C)C)NC(=O)[C@@H](N)Cc1ccccc1)C(=O)N[C@@H](Cc1ccccc1)C(=O)N[C@@H](Cc1ccccc1)C(=O)N[C@@H](Cc1c[nH]c2ccccc12)C(=O)N[C@H](C(=O)O)C(C)C` [Peptide 60.0203], the “A2 Cross-Reactivity” value is 4. Then `CC[C@H](C)[C@H](NC(=O)[C@H](CO)NC(=O)[C@@H](NC(=O)CN)C(C)C)C(=O)N[C@@H](Cc1c[nH]c2ccccc12)C(=O)N[C@@H](CC(N)=O)C(=O)N1CCC[C@H]1C(=O)N[C@H](C(=O)N[C@H](C(=O)O)C(C)C)[C@@H](C)CC` [Peptide 60.0207], with 3; and `CSCC[C@H](NC(=O)[C@H](CCC(N)=O)NC(=O)[C@H](CC(C)C)NC(=O)CNC(=O)[C@H](CO)NC(=O)[C@@H](NC(=O)[C@@H](N)[C@@H](C)O)C(C)C)C(=O)N[C@@H](C)C(=O)N[C@H](C(=O)O)C(C)C` [Peptide 60.0213], with 5. The value for `CC(C)C[C@H](NC(=O)[C@@H](NC(=O)[C@H](CC(C)C)NC(=O)[C@@H](N)Cc1ccccc1)[C@@H](C)O)C(=O)N[C@@H](CO)C(=O)N[C@H](C(=O)N[C@H](C(=O)N[C@@H](Cc1c[nH]c2ccccc12)C(=O)N[C@H](C(=O)O)C(C)C)[C@@H](C)O)C(C)C` [Peptide 60.0216] was 4; that for `CC[C@H](C)[C@H](NC(=O)[C@H](Cc1c[nH]c2ccccc12)NC(=O)[C@@H](NC(=O)[C@@H](NC(=O)[C@H](CO)NC(=O)[C@H](CC(C)C)NC(=O)[C@@H](N)[C@@H](C)O)C(C)C)[C@@H](C)O)C(=O)NCC(=O)N[C@H](C(=O)O)C(C)C` [Peptide 60.0217] was 4. Turning to `CSCC[C@H](NC(=O)[C@H](Cc1ccccc1)NC(=O)[C@H](CCCCN)NC(=O)[C@@H](NC(=O)[C@@H](NC(=O)[C@@H](N)CCCCN)C(C)C)[C@@H](C)O)C(=O)N[C@@H](CC(C)C)C(=O)N[C@@H](CS)C(=O)N[C@H](C(=O)O)C(C)C` [Peptide 60.0220], the “A2 Cross-Reactivity” value was 3. The value for `CC(C)C[C@H](NC(=O)[C@H](CO)NC(=O)[C@H](C)NC(=O)[C@H](C)NC(=O)[C@H](CCCNC(=N)N)NC(=O)[C@H](C)NC(=O)[C@H](CC(C)C)NC(=O)[C@@H](N)CC(C)C)C(=O)N[C@@H](CO)C(=O)N[C@H](C(=O)O)C(C)C` [Peptide 63.0031] was 4; that for `CC(C)C[C@H](NC(=O)[C@H](CC(C)C)NC(=O)[C@@H](N)CO)C(=O)N[C@@H](C)C(=O)N[C@@H](CCCCN)C(=O)N[C@@H](CCC(=O)O)C(=O)N[C@@H](CC(C)C)C(=O)N[C@@H](CCCCN)C(=O)N[C@@H](Cc1ccccc1)C(=O)N[C@H](C(=O)O)C(C)C` [Peptide 63.0033] was 4. `CC(C)C[C@H](NC(=O)[C@H](CCC(=O)O)NC(=O)[C@H](CCCCN)NC(=O)[C@H](C)NC(=O)[C@H](CC(C)C)NC(=O)[C@@H](N)C(C)C)C(=O)N[C@@H](CCCCN)C(=O)N[C@@H](Cc1ccccc1)C(=O)N[C@H](C(=O)N[C@H](C(=O)O)C(C)C)C(C)C` [Peptide 63.0034]: the “A2 Cross-Reactivity” value is recorded as 4.

In the case of `CC[C@H](C)[C@H](NC(=O)[C@H](CO)NC(=O)[C@@H](NC(=O)CN)C(C)C)C(=O)N[C@@H](Cc1c[nH]c2ccccc12)C(=O)N[C@@H](CC(N)=O)C(=O)N1CCC[C@H]1C(=O)N[C@H](C(=O)N[C@@H](CC(C)C)C(=O)N[C@H](C(=O)O)C(C)C)[C@@H](C)CC` [Peptide 63.0041], the “A2 Cross-Reactivity” value was 4.

`CC[C@H](C)[C@H](NC(=O)[C@@H]1CCCN1C(=O)[C@H](CCC(N)=O)NC(=O)[C@H](Cc1c[nH]c2ccccc12)NC(=O)[C@H](CC(C)C)NC(=O)[C@H](CC(C)C)NC(=O)[C@H](CC(C)C)NC(=O)[C@@H]1CCCN1)C(=O)N1CCC[C@H]1C(=O)N[C@H](C(=O)O)C(C)C` [Peptide 63.0042]: the “A2 Cross-Reactivity” value stood at 4.

Consider `CC(C)C[C@H](NC(=O)[C@H](CCC(=O)O)NC(=O)[C@H](CCCNC(=N)N)NC(=O)[C@H](CC(C)C)NC(=O)[C@@H](N)CCCCN)C(=O)N[C@@H](CO)C(=O)N[C@@H](CCC(=O)O)C(=O)N[C@@H](CC(C)C)C(=O)N[C@@H](CO)C(=O)N[C@H](C(=O)O)C(C)C` [Peptide 63.0048], for which the “A2 Cross-Reactivity” value came to 4. Consider `CC(C)C[C@H](NC(=O)[C@H](CO)NC(=O)[C@H](CC(C)C)NC(=O)[C@H](CO)NC(=O)[C@H](C)NC(=O)[C@H](C)NC(=O)[C@H](CCCNC(=N)N)NC(=O)[C@H](C)NC(=O)[C@H](CC(C)C)NC(=O)[C@H](CC(C)C)NC(=O)[C@@H](N)CC(C)C)C(=O)O` [Peptide 63.0136], for which the “A2 Cross-Reactivity” value stood at 5.

In the case of `CC(C)C[C@H](NC(=O)[C@H](Cc1ccccc1)NC(=O)[C@H](CC(C)C)NC(=O)[C@H](Cc1ccccc1)NC(=O)CNC(=O)[C@H](CC(C)C)NC(=O)[C@H](CO)NC(=O)[C@H](CC(C)C)NC(=O)[C@H](CO)NC(=O)[C@H](C)NC(=O)[C@H](C)N)C(=O)O` [Peptide 63.0137], the “A2 Cross-Reactivity” value was 4. The value for `CC(C)C[C@H](NC(=O)[C@@H](NC(=O)[C@H](CO)NC(=O)[C@H](CCCNC(=N)N)NC(=O)[C@H](CC(=O)O)NC(=O)[C@H](CC(C)C)NC(=O)[C@H](Cc1c[nH]c2ccccc12)NC(=O)[C@H](Cc1ccccc1)NC(=O)[C@H](Cc1ccccc1)NC(=O)[C@H](CC(C)C)NC(=O)[C@@H](N)CC(C)C)C(C)C)C(=O)O` [Peptide 63.0139] was 3; that for `CC(C)C[C@H](NC(=O)[C@@H](NC(=O)[C@@H](NC(=O)[C@H](Cc1ccccc1)NC(=O)[C@H](CCCCN)NC(=O)[C@H](CC(C)C)NC(=O)[C@H](CCC(=O)O)NC(=O)[C@H](CCCCN)NC(=O)[C@H](C)NC(=O)[C@H](CC(C)C)NC(=O)[C@@H](N)C(C)C)C(C)C)[C@@H](C)O)C(=O)O` [Peptide 63.0142] was 4.

Values taken from US20040037843A1, “Inducing cellular immune responses to prostate cancer antigens using peptide and nucleic acid compositions” (priority 2003, published 2004).
